According to US8980905B2, “Benzodioxole or benzodioxepine heterocyclic compounds as phosphodiesterase inhibitors” (Leo Pharma A/S, priority 2010, dated 2015):

Test: In vivo pharmacokinetic analyses in rat
Details: PO dosing 5 mg/kg of compound 101 from WO 2008/104175

- Serum Cmax of the metabolite (R3=OH, compound 403): 2000 ng/mL
SMILES: COc1ccc(C(=O)Cc2c(Cl)cncc2Cl)c2c1OC1(CCOCC1)O2
